The target in test [1] is Toll-like receptor 2 (Homo sapiens) (UniProt O60603). Kind of test: Induction of human TLR2 homodimerization expressed in insect Hi5 cells by size exclusion chromatography. The procedure, abridged:
(§1)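 Human TLR1 and TLR2 ectodomains were made in Hi5 insect cells, partially deglycosylated, and had the protein A tag cleaved by thrombin before purification. Protein at 1 μM (each alone, or both together) was incubated with 30 μM ligand in 25 mM HEPES pH 8.0, 150 mM NaCl, 10% DMSO for 4 h at room temperature. Dimer formation was then analysed by analytical gel filtration on Superdex 200.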
A general note: SEC sorts molecules by how far they enter the pores of the column.

Sequences of proteins named here, by UniProt entry; tags and fusion partners are left off. A change or cut given only in a name is not applied to a line headed by its entry.
UniProt O60603, whole entry: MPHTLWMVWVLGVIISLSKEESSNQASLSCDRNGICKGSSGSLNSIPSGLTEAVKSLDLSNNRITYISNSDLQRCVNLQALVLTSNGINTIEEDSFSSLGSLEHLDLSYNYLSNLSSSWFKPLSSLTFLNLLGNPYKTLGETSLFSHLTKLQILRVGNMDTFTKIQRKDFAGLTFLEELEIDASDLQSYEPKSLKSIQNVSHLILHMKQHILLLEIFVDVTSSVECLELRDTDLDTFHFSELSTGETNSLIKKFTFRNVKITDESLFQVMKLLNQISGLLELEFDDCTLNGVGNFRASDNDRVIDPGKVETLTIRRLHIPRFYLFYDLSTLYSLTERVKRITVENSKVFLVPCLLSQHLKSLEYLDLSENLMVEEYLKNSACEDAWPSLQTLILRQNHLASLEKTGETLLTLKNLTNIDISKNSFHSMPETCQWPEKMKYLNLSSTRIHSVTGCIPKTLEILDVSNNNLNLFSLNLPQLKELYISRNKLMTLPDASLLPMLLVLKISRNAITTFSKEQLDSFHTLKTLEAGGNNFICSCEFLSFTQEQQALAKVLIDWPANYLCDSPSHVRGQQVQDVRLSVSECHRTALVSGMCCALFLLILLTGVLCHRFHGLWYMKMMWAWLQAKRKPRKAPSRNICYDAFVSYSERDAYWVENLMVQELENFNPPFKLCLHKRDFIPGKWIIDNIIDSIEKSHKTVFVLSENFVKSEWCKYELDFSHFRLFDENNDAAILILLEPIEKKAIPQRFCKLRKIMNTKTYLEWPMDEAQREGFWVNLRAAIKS
UniProt Q15399: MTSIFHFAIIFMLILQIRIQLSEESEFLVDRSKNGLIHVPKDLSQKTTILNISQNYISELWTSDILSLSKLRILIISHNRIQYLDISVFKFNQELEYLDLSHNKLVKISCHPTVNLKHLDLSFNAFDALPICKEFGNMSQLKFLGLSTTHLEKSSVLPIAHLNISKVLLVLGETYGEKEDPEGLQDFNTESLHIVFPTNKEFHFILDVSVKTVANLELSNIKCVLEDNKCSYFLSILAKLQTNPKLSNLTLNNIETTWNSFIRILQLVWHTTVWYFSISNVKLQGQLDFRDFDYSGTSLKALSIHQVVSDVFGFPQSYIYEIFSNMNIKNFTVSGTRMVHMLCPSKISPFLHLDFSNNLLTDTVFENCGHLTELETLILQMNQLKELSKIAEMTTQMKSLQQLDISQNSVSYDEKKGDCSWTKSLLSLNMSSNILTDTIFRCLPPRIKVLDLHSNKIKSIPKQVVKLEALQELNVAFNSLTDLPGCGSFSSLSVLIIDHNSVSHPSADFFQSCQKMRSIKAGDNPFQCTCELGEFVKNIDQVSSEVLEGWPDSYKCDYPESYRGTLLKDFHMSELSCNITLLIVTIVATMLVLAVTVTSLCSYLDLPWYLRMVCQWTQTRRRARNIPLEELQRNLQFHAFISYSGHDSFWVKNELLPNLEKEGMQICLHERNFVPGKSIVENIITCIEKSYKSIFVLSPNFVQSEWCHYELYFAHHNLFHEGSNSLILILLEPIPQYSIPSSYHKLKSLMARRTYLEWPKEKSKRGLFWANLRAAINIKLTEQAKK

In test [2] the target is Toll-like receptor 1/2 (Homo sapiens) (UniProt O60603+Q15399). Kind of test: Induction of human TLR2/TLR1 heterodimerization expressed in insect Hi5 cells by size exclusion chromatography. The procedure, abridged:
as §1

Calls of active or inactive are those of the source. No cut-off for these calls is given here.

As for `O=C(N[C@H]1C[C@@H]1c1ccccc1)[C@@H]1CN(C(=O)c2ccc(C(=O)N3C[C@@H](C(=O)N[C@H]4C[C@@H]4c4ccccc4)[C@H](C(=O)N[C@H]4C[C@@H]4c4ccccc4)C3)cc2)C[C@H]1C(=O)N[C@H]1C[C@@H]1c1ccccc1`, the outcome in test [1] and in test [2] was Active.
